# High-throughput results as filed in PubChem BioAssay.
# Only some compounds are listed: those with a hit (about 3.7% of all), similar ones and a draw of the others.
# Nrf2 inh – Nrf2 pathway inhibition. A549 ARE-Fluc reporter, luciferase luminescence, 18-24 h. Potency, µM (titrated, usually from 46 µM), without a hit: at the highest dose activity change, negative = inhibition, hits mostly inhibitors. actives 2.1% (n = 360,000). AID 504444; also: potency is read from the fitted curve at half-maximal effect; % is scaled to controls: 0 for no effect and ±100 for the full control effect; nearly all actives have a fitted effect of over 60% in size
#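 Two sequential reads on A549 ARE_Fluc cells exposed to compound for 18-24 h: a CellTiter-Fluor fluorescence read for viability, then a luciferase luminescence read for Nrf2/ARE activity.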
# TCR act – activators of T cell receptors | 330,000 tested, under 10 active | Potency, µM (series often up to 9.22 µM), for the others: at the highest dose activation of IL-2 secretion, hits mostly activators | primary human leukocytes, anti-CD3, IL-2 HTRF, 48 h; also: % of control where 0% means no effect
#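 Primary human leukocytes were stimulated with a-CD3 beads plus compounds for 48 hr without co-stimulation; secreted IL-2 was quantified by HTRF using a-IL-2-K (europium cryptate) and a-IL-2-d2, excited at 320nm with acceptor emission read at 665nm.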
# Nrf2 activator – activators of Nrf2 (ARE) signaling; actives 0.31% (n = 410,000); AREc32 ARE-luciferase reporter (MCF7-derived line), luminescence, 24 h; Potency, µM (top dose mostly 46.1 µM), for the others: at the top dose activation, usual class: activators; also: potency is read from the fitted curve at half-maximal effect; % of control where 0% means no effect; nearly all actives have a fitted effect of over 65% in size
#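 Cells of the AREc32 ARE-luciferase line are plated in OPTI-MEM containing 5% FBS and left overnight at 37 deg C. Compounds are pinned in, incubation continues 24 hr, and firefly luciferase signal is then measured.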
# ClpP mod – qHTS Assay for Activators of ClpP; Potency, µM (top dose mostly 57.5 µM), for inactives: at the top dose activity change, negative = active; purified B. subtilis ClpP, FRET peptide cleavage, 20 min; actives 1.9% (n = 340,000); active = well fitted falling curve with a large enough effect; inconclusive = small, poorly fitted or top-dose-only effect; inactive = no such curve, though single readings can be large or run the other way; also: potency is read from the fitted curve at half-maximal effect; the source files actives as falling curves though it sought activators and does not explain the sign; nearly all actives have a fitted effect of over 65% in size
#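 ClpP 10 microg/mL final, pH 8 Tris/KCl buffer with BSA, glycerol, Tween-20; compound pinned in; FRET-FV substrate; RT 20 min; Ex320/Em430; ΔFRET vs ADEP 5.8 microM, DMSO, no enzyme.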
# A549 tox-1 – counter-screen for Nrf2 inhibitors: cytotoxicity in A549 cells; A549 ARE-Fluc cells, CellTiter-Fluor viability, 18-24 h; Potency, µM (top dose mostly 46 µM), without a hit: at the top dose activity change, negative = cytotoxicity, hits mostly inhibitors; actives 0.16% (n = 390,000); also: potency is read from the fitted curve at half-maximal effect; % is scaled to controls: 0 for no effect and ±100 for the full control effect
#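 Cytotoxicity counterscreen: CellTiter-Fluor fluorescence was measured in A549 ARE_Fluc cells after 18-24 h of compound exposure in a concentration series. The subsequent BugLite luminescent read reports ARE-luciferase activity.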
# miR-21 reporter – raises the signal of a miR-21 reporter | Potency, µM (highest dose often 38.3 µM), without a hit: at the top dose reporter change, positive = more light | HeLa miR-21 FLuc reporter, luciferase, 48 h | 340,000 tested, under 10 active; active = well fitted rising curve with a large enough effect; inconclusive = small, poorly fitted or top-dose-only effect; inactive = no such curve, though single readings can be large or run the other way;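 further: % of control where 0% means no effect; miR-21 action dims this reporter so a rising signal means less miR-21 action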
#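 HeLa cells endogenously expressing miR-21, stably carrying CMV-driven firefly luciferase with a downstream miR-21 binding site, 2000 cells/well. Titrations up to approximately 40 uM, 48 hours; luciferase luminescence read.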
# FLuc enzyme inh – counter-screen for Nrf2 inhibitors: firefly luciferase enzyme inhibition. purified firefly luciferase, luminescence inhibition. AID 720522. Potency, µM (top dose mostly 57.5 µM), without a hit: top-dose activity change, negative = inhibition, usual class: inhibitors. actives 4% (n = 1,400). shares compounds with Nrf2 inh; also: potency is read from the fitted curve at half-maximal effect; % is scaled to controls: 0 for no effect and ±100 for the full control effect; nearly all actives have a fitted effect of over 65% in size
# A549 tox-2 – counter-screen for Nrf2 inhibitors: cytotoxicity in A549 ARE cells | AID 720523 | Potency, µM (highest dose often 46.1 µM), for inactives: top-dose activity change, negative = cytotoxicity, actives largely listed as inhibitors | A549 ARE-Fluc cells, cytotoxicity counterscreen | actives 2% (n = 1,400) | shares compounds with Nrf2 inh;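 also: potency is read from the fitted curve at half-maximal effect; cells exposed to compounds for 18 to 24 hours; % is scaled to controls: 0 for no effect and ±100 for the full control effect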
# Nrf2 ARE inh – reduces Nrf2 ARE reporter signal in A549 cells; shares compounds with Nrf2 inh; A549 ARE-firefly luciferase reporter, luminescence; Potency, µM (doses to about 46.1 µM), without a hit: at the top dose activity change, negative = inhibition, hits mostly inhibitors; actives 74% (n = 1,400); AID 720524; also: potency is read from the fitted curve at half-maximal effect; % is scaled to controls: 0 for no effect and ±100 for the full control effect; nearly all actives have a fitted effect of over 65% in size
# * = called active by the depositor; u = inconclusive; x = not tested or not shown; ! = a repeat was not active; [ ] = another dose, or the depositor's remark. Unless noted, calls follow the shape of the dose curve; as a rule, active = well fitted curve in the direction sought with a large enough effect; inconclusive = small, poorly fitted or top-dose-only effect, or another doubt; inactive = no such curve, though single readings can be large; an effect the other way counts as inactive or inconclusive.
molecule,Nrf2 inh,TCR act,Nrf2 activator,ClpP mod,A549 tox-1,miR-21 reporter,FLuc enzyme inh,A549 tox-2,Nrf2 ARE inh
Cc1cccc(N2CCN(C(=O)CCNS(=O)(=O)c3ccc4c(c3)CCC(=O)N4)CC2)c1C,5.8µM*,-3%,-1%,0%,x,16%,1%,1%,u
Cc1ccc(NS(=O)(=O)c2ccc3c(c2)CCCC(=O)N3)cc1C,u,x,x,x,6%,x,x,x,x
O=C1Cc2c([nH]c3ccc([N+](=O)[O-])cc23)-c2ccccc2N1,2.3µM*,-5%,-1%,-2%,u,x,-21%,u,2.3µM*
CC[C@]12c3[nH]c4ccc(Cl)cc4c3CCN1C(=O)[C@@H](CC(=O)NC/C=C(\C)CCC=C(C)C)C[C@@H]2C(=O)N1CCN(C(=O)c2ccco2)CC1,6.5µM*,-9%[46.1 µM],-1%,1%,u,x,3%,u,16µM*
O=C(NCc1ccco1)c1nc2c(nnn2Cc2ccccc2Cl)c(=O)[nH]1,4.6µM*,-1%[46.1 µM],-2%,0%,u,u,-6%,u,6.5µM*
CC(=O)Nc1ccc(S(=O)(=O)N2CCN(S(=O)(=O)c3ccc(F)c(F)c3F)CC2)cc1,18%,0%,0%,0%,8%,0%,x,x,x
O=C(Nc1cccc(S(=O)(=O)Nc2ccc(Cl)cc2)c1)c1ccccn1,8.2µM*,-1%,0%,-2%,u,x,-9%,4%,x
O=S(=O)(c1ccc2c(c1)OCCO2)N1CCC(c2nc3ccccc3[nH]2)CC1,x,-2%,0%,0%,-8%,8%,x,x,x
COc1ccc(S(=O)(=O)N2CCC(c3nc4ccccc4s3)CC2)cc1OC,12%,x,-1%,-8%,6%,8%,x,x,x
O=C(C1CC1)N1CCC(c2nc(-c3ccc(S(=O)(=O)N4CCCC4)cc3)no2)CC1,-2%,2%,0%,-1%,-6%,15%,x,x,x
O=S(=O)(c1ccc2c(c1)OCCO2)N1CCC(c2nc3ccc(Cl)cc3[nH]2)CC1,4.6µM*,x,4%,-4%,u,28%,-13%,-22%,10µM*
O=S(=O)(c1ccc2ccccc2c1)N1CCC(c2nc(-c3ccncc3)no2)CC1,4.1µM*,7%[46.1 µM],0%,-1%,-26%,-8%,3%,-6%,u
Cc1ccc(-c2noc(C3CCCN(S(=O)(=O)c4ccc5ccccc5c4)C3)n2)o1 (centres undefined),u,5%,0%,-2%,-4%,-16%,x,x,x
Cc1ccc(-c2noc(C3CCN(S(=O)(=O)c4ccc5c(c4)OCCO5)CC3)n2)o1,6.5µM*,2%,2%,-2%,-11%,-4%,-16%,-13%,12µM*
O=S(=O)(c1ccc2c(c1)OCCO2)N1CCC(c2nc3ccccc3s2)CC1,3.3µM*,x,0%,2%,0%[1.84 µM],-1%,-1%,-7%,-48%
CN(C(=O)CN1CCN(c2cc(-c3ccc(-c4ccccc4)cc3)ncn2)CC1)c1ccccc1,x,x,0%,-8%,x,x,x,x,x
CCc1ccccc1N(CC)C(=O)c1c(C)oc2ncn(C)c(=O)c12,7%,x,1%,0%,-6%,-2%,x,x,x
O=c1c2cccnc2n(Cc2ccccc2F)c(=O)n1Cc1ccc(F)cc1,u,x,0%,u,6%,-5%,x,x,x
CCCNC(=O)COc1coc(CN2CCN(c3cccc(Cl)c3)CC2)cc1=O,-8%,10%,0%,x,3%,5%,x,x,x
Cn1cnc([N+](=O)[O-])c1Sc1nc(N)nc2c1ncn2C1CC(O)C(CO)O1 (centres undefined),u,-1%,1%,-21%,u,x,x,x,x

# Whole records, looked up by structure. Order of values: Nrf2 inh, TCR act, Nrf2 activator, ClpP mod, A549 tox-1, miR-21 reporter, FLuc enzyme inh, A549 tox-2, Nrf2 ARE inh
# CN(C(=O)CN1CCN(c2cc(-c3ccc(-c4ccccc4)cc3)ncn2)CC1)c1ccccc1 across the screens: x, x, 0%, -8%, x, x, x, x, x
# Cn1cnc([N+](=O)[O-])c1Sc1nc(N)nc2c1ncn2C1CC(O)C(CO)O1 (centres undefined) across the screens: u, -1%, 1%, -21%, u, x, x, x, x

# Remaining list, next part
molecule,Nrf2 inh,TCR act,Nrf2 activator,ClpP mod,A549 tox-1,miR-21 reporter,FLuc enzyme inh,A549 tox-2,Nrf2 ARE inh
Nc1cc(OC(=O)c2ccc(F)cc2)nn1S(=O)(=O)c1ccc(F)cc1,u,0%,-1%,1%,-5%,4%,x,x,x
COc1ccccc1C(=O)Oc1cc(N)n(S(=O)(=O)c2ccc(C)cc2)n1,u,-11%,0%,-5%,-16%,-4%,x,x,x
Cc1ccc(S(=O)(=O)n2nc(OC(=O)c3ccccc3C)cc2N)cc1,5.8µM*,4%,0%,x,4%,-3%,-13%,0%,2.3µM*
COc1ccc(C(=O)Oc2cc(N)n(S(=O)(=O)c3ccc(C)cc3)n2)cc1,7.3µM*,5%,0%,0%,3%,6%,3%,-9%,2.1µM*
Cc1cc(C)c(NS(=O)(=O)c2cc(-c3onc(C)c3C)ccc2C)c(C)c1,u,x,-1%,1%,9%,16%,x,x,x
Cc1ccc2c(c1)N(S(=O)(=O)c1cc(-c3onc(C)c3C)ccc1C)CCO2,8.2µM*,-1%,0%,-3%,1%,19%,1%,2%,u
CCCCOc1cc(C(=O)NCCN(CC)CC)c2ccccc2n1,9.2µM*!,8%,4%,5%,-6%,-20%,-1%,-2%,6.5µM*
CCN(CC)CCNC(=O)c1cc(-c2ccc(Br)s2)nc2ccccc12,-1%,4%,-3%,4%,-17%,-17%,x,x,x
CCN1C(=O)/C(=C2\C=Cc3cc(C)ccc3N2CC)OC1=S,-2%,-3%[46.1 µM],0%,3%,-15%,-23%,x,x,x
CCN1/C(=C/c2cc[n+](C)cc2)C=Cc2cc(C)ccc21,3.7µM*,6%[46.1 µM],0%,-11%,u,1%,-18%,10µM*,1.3µM*
COc1ccc(C)cc1NC(=O)c1ccccc1NS(=O)(=O)c1cccc2cccnc12,0%,4%[46.1 µM],2%,0%,-2%,-10%,x,x,x
CC1(C)CC2CC(C)(CN2S(=O)(=O)c2ccc(C(=O)Nc3cc(S(=O)(=O)N4CCOCC4)ccc3Cl)cc2)C1 (centres undefined),u,1%,-1%,-6%,-4%,14%,x,x,x

# Compounds shown so far that have fluorine:
molecule,Nrf2 inh,TCR act,Nrf2 activator,ClpP mod,A549 tox-1,miR-21 reporter,FLuc enzyme inh,A549 tox-2,Nrf2 ARE inh
CC(=O)Nc1ccc(S(=O)(=O)N2CCN(S(=O)(=O)c3ccc(F)c(F)c3F)CC2)cc1,18%,0%,0%,0%,8%,0%,x,x,x
O=c1c2cccnc2n(Cc2ccccc2F)c(=O)n1Cc1ccc(F)cc1,u,x,0%,u,6%,-5%,x,x,x
Nc1cc(OC(=O)c2ccc(F)cc2)nn1S(=O)(=O)c1ccc(F)cc1,u,0%,-1%,1%,-5%,4%,x,x,x
